Measured values published in publication PMC11588046 (Proceedings of the National Academy of Sciences of the …, 2024).

Biological target: T1, ACVR1 (ALK2) (Homo sapiens, UniProt Q04771)
T1 sequence (Q04771 21-509): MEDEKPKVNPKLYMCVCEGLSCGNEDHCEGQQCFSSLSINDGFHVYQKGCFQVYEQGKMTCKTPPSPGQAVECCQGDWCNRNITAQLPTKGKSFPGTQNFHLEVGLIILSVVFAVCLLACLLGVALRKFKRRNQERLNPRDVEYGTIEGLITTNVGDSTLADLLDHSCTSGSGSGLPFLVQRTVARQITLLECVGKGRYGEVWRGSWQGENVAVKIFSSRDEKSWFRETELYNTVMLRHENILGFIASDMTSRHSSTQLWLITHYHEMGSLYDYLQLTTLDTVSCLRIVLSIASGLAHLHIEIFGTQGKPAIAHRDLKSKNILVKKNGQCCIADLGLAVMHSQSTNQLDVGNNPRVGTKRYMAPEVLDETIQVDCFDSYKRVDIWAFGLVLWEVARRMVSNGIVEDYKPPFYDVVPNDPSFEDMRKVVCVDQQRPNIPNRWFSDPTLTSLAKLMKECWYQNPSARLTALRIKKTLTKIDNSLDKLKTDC
Assay type: binding

decrease in ALK2 potency relative to parent compound: more than 50 fold
Compound: CNC(=O)CCCn1c(-c2cc(OC)c(OC)c(OC)c2)nc2ccc(C(=O)NCCCN3CCN(c4ccccc4)CC3)cc21 [CDD-2316]
